Reference: patent US8217189B2, “Chromenone potassium channel blockers and uses thereof” (Bionomics Limited, priority 2006, dated 2012)

By UniProt entry, the sequences of proteins in these tests, tags left out.
UniProt P22001, whole entry: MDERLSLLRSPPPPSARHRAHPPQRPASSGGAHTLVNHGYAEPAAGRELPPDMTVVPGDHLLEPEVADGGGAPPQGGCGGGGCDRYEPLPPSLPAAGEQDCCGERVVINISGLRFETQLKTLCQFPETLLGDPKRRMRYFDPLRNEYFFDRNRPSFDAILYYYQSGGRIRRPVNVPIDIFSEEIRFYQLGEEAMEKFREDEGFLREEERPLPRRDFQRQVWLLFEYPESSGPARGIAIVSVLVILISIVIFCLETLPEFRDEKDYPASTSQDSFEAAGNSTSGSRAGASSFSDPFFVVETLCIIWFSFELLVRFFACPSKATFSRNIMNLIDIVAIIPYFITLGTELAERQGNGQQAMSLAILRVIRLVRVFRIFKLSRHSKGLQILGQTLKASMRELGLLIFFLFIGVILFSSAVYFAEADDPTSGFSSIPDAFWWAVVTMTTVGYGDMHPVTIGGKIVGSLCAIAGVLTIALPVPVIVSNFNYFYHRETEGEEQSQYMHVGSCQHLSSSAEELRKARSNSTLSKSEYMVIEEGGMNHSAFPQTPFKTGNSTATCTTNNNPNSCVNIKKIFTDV

Biological target: human Kv1.3 ion channel (Homo sapiens, UniProt P22001)
Assay: Inhibition of Kv1.3 currents, planar patch clamp in human Jurkat cells
Details: read-out: EC50 Kv1.3, Jurkat cells endogenously expressing hKv1.3, averaged dose response data from 3 or more cells

In the case of `CSCc1cc(=O)c2c(OCCCCOc3ccccc3)c3ccoc3cc2o1`, the EC50 is reported as 260 nM.
